Experimental data: publication PMC9080097, “Identification of absorbed constituents and evaluation of the pharmacokinetics of main compounds after oral administration of yindanxinnaotong by UPLC-Q-TOF-MS and UPLC-QqQ-MS” (RSC Advances, 2018)

Columns and labels:
[1] = Pharmacokinetics study in rats after oral administration of YDXNT (UPLC-QqQ-MS of plasma); details: rat plasma, oral YDXNT 4.8 g kg^−1 d^−1 (2.4 g kg^−1 in source); for C max / T max: n = 6, mean ± SD; for AUC0–INF / MRT / T 1/2: n = 6, non-compartmental; for AUC0–t: n = 6, sampling to 24 h, non-compartmental
[2] = Stability of the analytes in rat plasma QC samples (short-term, autosampler, freeze-thaw, long-term); details: n = 6
[3] = 1 ng mL^−1, -20°C for four weeks
[4] = 1 ng mL^−1, room temperature for 6 h before sample preparation
[5] = 1 ng mL^−1, room temperature for 12 h in the autosampler after sample preparation
[6] = 1 ng mL^−1, three freeze-thaw cycles -20°C to ambient temperature
[7] = 10 ng mL^−1, -20°C for four weeks
[8] = 10 ng mL^−1, room temperature for 6 h before sample preparation
[9] = 10 ng mL^−1, room temperature for 12 h in the autosampler after sample preparation
[10] = 10 ng mL^−1, three freeze-thaw cycles -20°C to ambient temperature
[11] = 100 ng mL^−1, -20°C for four weeks
[12] = 100 ng mL^−1, room temperature for 6 h before sample preparation
[13] = 100 ng mL^−1, room temperature for 12 h in the autosampler after sample preparation
[14] = 100 ng mL^−1, three freeze-thaw cycles -20°C to ambient temperature

| Substance | C max [1] | T max [1] | AUC0–INF [1] | MRT [1] | T 1/2 [1] | AUC0–t [1] | Long-term stability Accuracy [2, 3] | Short-term stability Accuracy [2, 4] | Autosampler stability Accuracy [2, 5] | Freeze–thaw strability (three cycles) Accuracy [2, 6] | Long-term stability Accuracy [2, 7] | Short-term stability Accuracy [2, 8] | Autosampler stability Accuracy [2, 9] | Freeze–thaw strability (three cycles) Accuracy [2, 10] | Long-term stability Accuracy [2, 11] | Short-term stability Accuracy [2, 12] | Autosampler stability Accuracy [2, 13] | Freeze–thaw strability (three cycles) Accuracy [2, 14] |
| --- | --- | --- | --- | --- | --- | --- | --- | --- | --- | --- | --- | --- | --- | --- | --- | --- | --- | --- |
| ginkgolide B [GB] | 0.07654 ± 0.01543 µg/mL | 1.00 ± 0.35 h | 691.00 ± 96.83 | 10.58 ± 2.63 h | 7.84 ± 3.53 h | 610.18 ± 91.45 | 98.45 ± 5.75% | 96.95 ± 2.87% | 101.66 ± 4.73% | 96.53 ± 5.48% | 95.72 ± 6.59% | 98.25 ± 5.91% | 95.45 ± 5.97% | 97.82 ± 4.31% | 97.38 ± 4.39% | 98.74 ± 4.06% | 99.11 ± 7.23% | 96.55 ± 5.94% |
| ginkgolide C [GC] | 0.03535 ± 0.01028 µg/mL | 1.50 ± 0.23 h | 297.49 ± 46.59 | 7.77 ± 2.62 h | 5.45 ± 1.48 h | 281.80 ± 41.33 | 100.07 ± 10.14% | 100.24 ± 4.70% | 98.49 ± 6.22% | 104.74 ± 8.47% | 100.48 ± 8.62% | 104.11 ± 3.38% | 102.24 ± 5.11% | 100.15 ± 4.52% | 93.97 ± 4.38% | 94.58 ± 5.63% | 91.17 ± 5.33% | 96.22 ± 5.73% |
